This is a selection; strong and weak results do not stand in their true shares. Calls of active or inactive are those of the source. Rule as the data show it: active = inhibition above about 24%; inactive = the rest.

As usually defined, the inhibition is the change of the read-out against control, counted positive when it falls.

For the test, the target named is Major prion protein (Homo sapiens) (UniProt P04156). The test can be described thus: reduces human prion protein on the cell surface, primary screen, cell-based, TR-FRET (AID 720596). Also: 0% = median of the test wells and 100% = reference compound wells. The following applies: cell surface PrPC, TR-FRET read-out; at 13.8 µM; hits give high values. (In general: In TR-FRET formats the signal depends on donor and acceptor labels being close together.)
Take `CCC(=O)N(c1ccccc1)C1(COC)CCN(CCc2cccs2)CC1`: the inhibition is inactive: -7.41%.

As for `CCC(=O)N(c1ccccc1)C1(COC)CCN(CCn2nnn(CC)c2=O)CC1`, the inhibition was inactive: 0.83%.

Values taken from PubChem BioAssay AID720596 (The Scripps Research Institute Molecular Screening Center, 2013).
